miR-21 FLuc: miR-21 reporter, rising signal; Potency, µM (doses to about 38.3 µM); HeLa miR-21 FLuc reporter, luciferase, 48 h; 340,000 tested, under 10 active; active = well fitted rising curve with a large enough effect; inconclusive = small, poorly fitted or top-dose-only effect; inactive = no such curve, though single readings can be large or run the other way;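 further: miR-21 action dims this reporter so a rising signal means less miR-21 action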
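HeLa miR-21-FLuc reporter line, endogenous miR-21; 2000 cells/well in DMEM/10% FBS; compound titration up to ~40uM final, 48 h, 37 degree Celsius; luciferase detection reagent, 15 min lysis, CCD luminescence.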
JMJD2E inh: blocks human JMJD2E demethylase activity. JMJD2E catalytic domain, FDH-coupled NADH fluorescence (FDH is formaldehyde dehydrogenase). actives 1.6% (n = 230,000). Potency, µM (series often up to 57.1 µM), actives largely listed as inhibitors; active = well fitted inhibition curve with a large enough effect, not every such curve was filed as active; inconclusive = small, poorly fitted or top-dose-only effect, or another doubt; inactive = no such curve, though single readings can be large or run the other way; note: nearly all actives have a fitted effect of over 50% in size
G9a block: blocks human histone lysine methyltransferase G9a; Q96KQ7; G9a H3K9 monomethylation, AlphaScreen, 2 h; Potency, µM (doses to about 102 µM), most hits filed as inhibitors; actives 8.8% (n = 350,000); AID 504332; note: nearly all actives have a fitted effect of over 75% in size
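Readings reflect AlphaScreen signal from monomethyl-H3K9 antibody detection. HMT at 20 nM; substrate b-H3K9 500 nM; cofactor SAM 20 uM; 2 h RT reaction; compounds tested as titrations in qHTS with 15 min preincubation.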
Sfp inh: Sfp phosphopantetheinyl transferase inhibition | Q9F4F7 | Biochemical Sfp PPTase activity, qHTS | Potency, µM, usual class: inhibitors | actives 3.5% (n = 310,000) | AID 1490;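 note: the enzyme is Sfp with the accession as filed and its product quenches rhodamine fluorescence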
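Compounds were incubated with enzyme (final 15 nM) for 15 min at room temperature before substrate addition started the reaction. Fluorescence at 525 nm excitation, 598 nm emission was recorded immediately and after 30 minutes.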
ALDH1A1 block: inhibitors of human aldehyde dehydrogenase 1A1. Purified ALDH1A1, NADH fluorescence, propionaldehyde substrate. Potency, µM (top dose mostly 75.3 µM), usual class: inhibitors. actives 7.3% (n = 220,000); active = well fitted inhibition curve with a large enough effect, not every such curve was filed as active; inconclusive = small, poorly fitted or top-dose-only effect, or another doubt; inactive = no such curve, though single readings can be large or run the other way
Lamin A splicing: modulators of lamin A splicing. HeLa LMNA splicing GFP/RFP minigene ratio, 48 h. Potency, µM (highest dose often 46.1 µM), hits mostly inhibitors. actives 0.01% (n = 200,000); active = well fitted inhibition curve with a large enough effect in the signal ratio, with a control signal flat, not every such curve was filed as active; inconclusive = small, poorly fitted or top-dose-only effect, or effect the other way, or a change in a side signal; the % refers to the signal ratio
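S3 HeLa stable clones carrying a lamin A-EGFP splicing minigene plus DsRed2 were seeded at 600 cells/well in Opti-MEM with 2% FBS, pin-dosed and incubated 48 h at 37°C. Acumen cytometry (488 nm) gave the GFP/RFP total-intensity ratio.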
Numbers stand for hits; [ ] = another dose, or the depositor's remark. Sampled rows, rich in hits. Any-hit rate of the full collection: about 13%. Unless noted, calls come from the whole dose curve; as a rule, active = well fitted curve in the direction sought with a large enough effect; inconclusive = small, poorly fitted or top-dose-only effect, or another doubt; inactive = no such curve, though single readings can be large; an effect the other way counts as inactive or inconclusive.

`Cc1ccc2cc(CN(C(=O)c3ccco3)c3ccccc3C)c(=O)[nH]c2c1` gave miR-21 FLuc inactive, JMJD2E inh inconclusive, G9a block inconclusive, Sfp inh 50µM, ALDH1A1 block 4.5µM and Lamin A splicing inconclusive.
COCC(=O)N(Cc1cc2ccc(C)cc2[nH]c1=O)c1ccccc1C was read as miR-21 FLuc inactive, G9a block inactive and Sfp inh inactive.
Screening COc1ccc(/C=C/C(=O)Nc2ccc(S(=O)(=O)Nc3cc(C)nc(C)n3)cc2)cc1OC returned miR-21 FLuc inactive, G9a block inactive and Sfp inh inactive.
`COc1ccc(/C=C/C(=O)Nc2ccc(-n3nncc3-c3ccc(OC)c(OC)c3)cc2)cc1OC` gave miR-21 FLuc inactive, JMJD2E inh inactive, G9a block 50µM, Sfp inh inactive, ALDH1A1 block inconclusive and Lamin A splicing inconclusive.
COc1ccc(/C=C/C(=O)Nc2ccccc2)cc1OC was read as miR-21 FLuc inactive, JMJD2E inh inactive, G9a block inactive, Sfp inh inactive and ALDH1A1 block inactive.
For COc1ccc(-c2cnnn2-c2ccc(NC(=O)/C=C/c3ccc(OC)c(OC)c3)cc2)cc1 the results were miR-21 FLuc inactive, JMJD2E inh inconclusive, G9a block 50µM, Sfp inh inactive, ALDH1A1 block inconclusive and Lamin A splicing inconclusive.
Screening Cc1nnc(NC(=O)CSc2ccccc2N)s1 returned miR-21 FLuc inactive, G9a block inactive and Sfp inh inactive.
Screening COc1ccccc1Cn1c(CNS(=O)(=O)c2ccc(Cl)s2)nc2cccnc21 returned miR-21 FLuc inactive, G9a block inactive and Lamin A splicing inactive.
`CC(=O)Oc1ccc(N2C(=O)C3C(C2=O)C2C=CC3C23CC3)cc1[N+](=O)[O-]` (stereo not drawn) gave miR-21 FLuc inactive, JMJD2E inh inactive, Sfp inh inactive and ALDH1A1 block 7.9µM.
For CCOc1ccc(C(C)=O)cc1N1C(=O)C2C(C1=O)C1C=CC2C12CC2 (stereo not drawn) the results were miR-21 FLuc inactive, JMJD2E inh inactive, G9a block inactive, Sfp inh inactive, ALDH1A1 block inactive and Lamin A splicing inactive.
Screening CC(=O)Oc1ccc(N2C(=O)C3C4C=CC(C5CC45)C3C2=O)cc1[N+](=O)[O-] (stereo not drawn) returned miR-21 FLuc inactive, JMJD2E inh inactive, G9a block inconclusive, Sfp inh 56µM, ALDH1A1 block 6.3µM and Lamin A splicing inactive.
For COc1cccc(CN2CCNC(=O)C2CC(=O)NCCCn2ccnc2)c1 (stereo not drawn) the results were miR-21 FLuc inactive, JMJD2E inh inconclusive, G9a block inactive and Sfp inh inactive.
`CCCC(O)(c1ccc(CC)cc1)C(CN1CCOCC1)c1ccccc1` (stereo not drawn) gave miR-21 FLuc inactive, G9a block inactive and Sfp inh inactive.
Cc1cccc(NC(=O)CN2C(=O)S/C(=C\c3cc(C)n(C)c3C)C2=O)c1 was read as miR-21 FLuc inactive, JMJD2E inh inactive, G9a block inactive, Sfp inh 56µM, ALDH1A1 block inactive and Lamin A splicing inactive.
For CCOC(=O)CN1C(=O)S/C(=C/C=C/c2ccc(N(C)C)cc2)C1=O the results were miR-21 FLuc inactive, JMJD2E inh inactive, G9a block 10µM, Sfp inh inactive, ALDH1A1 block 25µM and Lamin A splicing inactive.
For Cc1ccc(NC(=O)CN2C(=O)S/C(=C\c3cc(C)n(-c4cccc(C(=O)O)c4)c3C)C2=O)cc1 the results were miR-21 FLuc inactive, JMJD2E inh inconclusive, Sfp inh inactive and ALDH1A1 block 13µM.
For Cc1ccc(NC(=O)CN2C(=O)S/C(=C\c3cc(C)n(C)c3C)C2=O)cc1 the results were miR-21 FLuc inactive, JMJD2E inh inactive, G9a block inactive, Sfp inh inactive, ALDH1A1 block inactive and Lamin A splicing inactive.
`Cc1ccc(NC(=O)CN2C(=O)S/C(=C\c3ccc(OCC(=O)O)c(Br)c3)C2=O)cc1` gave miR-21 FLuc inactive, G9a block 45µM and Sfp inh inactive.
`Cc1ccc(N2C(=O)CSC23C(=O)N(CC(=O)Nc2ccc(C)cc2C)c2ccccc23)cc1` (stereo not drawn) gave miR-21 FLuc inactive, G9a block inactive and Lamin A splicing inactive.
`Cc1cccc(NC(=O)CN2C(=O)N/C(=C/c3cc(C)n(C)c3C)C2=O)c1` gave miR-21 FLuc inactive, JMJD2E inh 32µM, G9a block 56µM, Sfp inh inactive, ALDH1A1 block inactive and Lamin A splicing inactive[9.22 µM].
`COc1ccccc1N1C(=O)S/C(=C\c2ccc(C)s2)C1=O` gave miR-21 FLuc inactive, G9a block inactive and Sfp inh inactive.
`O=C(O)c1cccc(CN2C(=O)S/C(=C/c3ccccc3[N+](=O)[O-])C2=O)c1` gave miR-21 FLuc inactive, JMJD2E inh inactive, G9a block inconclusive and Sfp inh inactive.
`CCOC(=O)CN1C(=O)S/C(=C/c2cccc([N+](=O)[O-])c2O)C1=O` gave miR-21 FLuc inactive, JMJD2E inh inactive, G9a block 35µM, Sfp inh inactive and ALDH1A1 block inconclusive.
For Cc1cccc(NC(=O)CN2C(=O)N/C(=C/c3cc(C)n(-c4cccnc4)c3C)C2=O)c1 the results were miR-21 FLuc inactive, JMJD2E inh 18µM, G9a block inactive, Sfp inh inactive and ALDH1A1 block inactive.
Screening COc1ccccc1N1C(=O)S/C(=C\c2cc(C)n(C)c2C)C1=O returned miR-21 FLuc inactive, JMJD2E inh inconclusive, Sfp inh inactive, ALDH1A1 block 14µM and Lamin A splicing inactive.
For Cc1cccc(NC(=O)CN2C(=O)N/C(=C/c3cc(C)n(-c4ccncc4)c3C)C2=O)c1 the results were miR-21 FLuc inactive, JMJD2E inh inactive, G9a block inactive, Sfp inh inactive, ALDH1A1 block inactive and Lamin A splicing inactive.
`Cc1cccc(NC(=O)CN2C(=O)N/C(=C\c3ccc(N4CCOCC4)cc3)C2=O)c1` gave miR-21 FLuc inactive, JMJD2E inh inactive, G9a block inactive, Sfp inh inactive, ALDH1A1 block inactive and Lamin A splicing inactive.
For CCCCn1c(Cn2nc(C(=O)O)c3ccccc3c2=O)nc2cc(S(N)(=O)=O)ccc21 the results were miR-21 FLuc inactive, G9a block inconclusive and Sfp inh inactive.
Screening Cc1ccc(NC(=O)CN2c3cccc4cccc(c34)S2(=O)=O)cc1S(=O)(=O)N1CCOCC1 returned miR-21 FLuc inactive, JMJD2E inh inconclusive, G9a block inactive, Sfp inh inactive, ALDH1A1 block inconclusive and Lamin A splicing inconclusive.
Screening COc1cc2c(cc1OC)C(COc1ccc3c(C)cc(=O)oc3c1)N(C(=O)c1cc(Cl)ccc1OC)CC2 (stereo not drawn) returned miR-21 FLuc inactive and G9a block inactive.

Screens as filed in PubChem BioAssay.
